The text below walks through data of PubChem BioAssay AID602252 (Broad Institute, 2012).

Molecules are shown by their SMILES. This is a selection; strong and weak results do not stand in their true shares. The source made the active and inactive calls.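 Rule for the calls: active = mean inhibition of at least 30% with at least half of replicates also reaching 30%; inconclusive = no clear call, values can overlap the other calls; inactive = the rest.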

For the assay, the target named is Golgi-associated PDZ and coiled-coil motif-containing protein (Homo sapiens) (UniProt Q9HD26). Nature of the assay: blockade of CAL PDZ-reporter peptide interaction – biochemical, fluorescence polarization, untagged CAL PDZ, HTS, primary screen (AID 602252).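 Note: 0% = DMSO neutral control and 100% = excess unlabeled competitor peptide PRC23.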 The settings on record: purified CAL PDZ, TMR-peptide fluorescence polarization, 1 h; at 24.9 µM; stronger effect = higher value. (Polarisation of emitted light reports the rotation of a fluorescent probe.)
Regarding `Cc1ccc2nc3c(c(C)c2c1)CC(C(Cl)Cl)S3` (stereo unspecified), the inhibition was inactive: 2.95%. As for `Cc1ccc(OP(=O)(Nc2ccc([N+](=O)[O-])cn2)Oc2ccc(C)cc2)cc1`, the figure is inactive: 1.46%; as for `COc1cc(C(=O)NCC2(N3CCOCC3)CCCCC2)ccc1OCC(C)C`, inactive: -2.32%; as for `O=[N+]([O-])c1ccc(-c2cc([N+](=O)[O-])c(O)c([N+](=O)[O-])c2)cc1`, inactive: 7.42%. As for `C[As](=O)(O)c1cccc(C(=O)O)c1`, the figure is inactive: 5.43%; as for `O=[As](O)(c1ccc(O)cc1)c1ccccc1O`, inactive: -2.84%; as for `O=[N+]([O-])c1cc([N+](=O)[O-])c(-c2ccn[nH]2)s1`, inactive: -2.67%. As for `CCN(CC)C(=S)SC(NC=O)C(Cl)(Cl)Cl` (stereo unspecified), the inhibition is inactive: -1.35%. Then `CC(C)NC(=O)NP(=O)(Oc1ccccc1)Oc1ccccc1`, with inactive: 4.01%. Take `CC(C)c1ccc(OP(=O)(Nc2ccccn2)Oc2ccccc2F)cc1` (stereo unspecified): the inhibition is inactive: -3.98%. As for `COC(=O)C1(C)COP(=O)(N2CCCCCC2)OC1` (stereo unspecified), the figure is inactive: 0.769%; as for `ClCCSc1nnc(-c2cccnc2)o1`, inactive: -1.09%; as for `CN(C(=O)Cc1ccc(Cl)c(Cl)c1)[C@H]1CCCC[C@@H]1N1CCCC1`, inactive: -1.47%. Then `Cc1ccc(NP(=O)(Oc2ccccc2F)Oc2ccccc2F)nc1`, with inactive: -1.33%; and `CCOP(=O)(Nc1ccccc1)OCC`, with inactive: -2.62%; and `Cc1cc(SC(NC(=O)c2ccc(F)cc2)C(Cl)(Cl)Cl)ncn1` (stereo unspecified), with inactive: -0.585%.

`CCCC1OP(N)(=O)OCC1CC` (stereo unspecified): the inhibition was inactive: -5.34%. Then `O=C(O)c1ccccc1[As](=O)(O)O`, with inactive: -4.12%.

As for `CC(=O)Nc1ccc([As](=O)(O)O)cc1`, the inhibition was inactive: -2.29%. As for `O=P(Nc1nc2ccc(Cl)cc2s1)(c1ccccc1)c1ccccc1`, the figure is inactive: -0.72%. Then `Nc1cccc2ccc([As](=O)(O)O)cc12`, with inactive: -5.84%. Then `COc1ccccc1OP(=O)(Nc1ccc(C)cn1)Oc1ccccc1OC`, with inactive: -3.35%. `Clc1ccc(Cl)c(NC2=NCC(CBr)S2)c1` (stereo unspecified): the inhibition was inactive: 0.025%. As for `CN1CCCC(OC(=O)C(c2ccccc2)c2ccccc2)C1` (stereo unspecified), the figure is inactive: -6.12%; as for `NC(=O)c1cc([N+](=O)[O-])cc([N+](=O)[O-])c1N`, inactive: -5.49%; as for `Cc1ccc(N/C(=N/P(=O)(N2CCOCC2)N2CCOCC2)N2CCOCC2)cc1`, inactive: 1.14%. Then `CN(C(=O)Cc1ccc(Cl)c(Cl)c1)[C@H]1CCCC[C@H]1N1CCCC1`, with inactive: 0.349%; and `CC(C)CC(=O)NC(Sc1ccc(Cl)cc1)C(Cl)(Cl)Cl` (stereo unspecified), with inactive: -3.69%; and `Nc1cc(N)c2nonc2c1[N+](=O)[O-]`, with inactive: -1.03%. Then `Oc1ccccc1CNc1ccccn1`, with inactive: -0.535%. On to `CC(=O)N1C2C3N(C(C)=O)C1C1N(C(C)=O)C(C(N1C(C)=O)N3C(C)=O)N2C(C)=O`, for which the inhibition was inactive: 0.118%.

On to `O=[N+]([O-])c1cccc2n[nH]nc12`, for which the inhibition was inactive: 2.37%. As for `CCc1nc2c(n1)c1c(non1O)c1c2no[n+]1[O-]`, the figure is inactive: -1.57%. Then `Cc1ccc(NP(=O)(Oc2ccccc2)Oc2ccccc2)nc1`, with inactive: 6.53%.

For `COc1ccc(C2=NCC(CBr)S2)cc1` (stereo unspecified), the inhibition was inactive: -6.84%.

In the case of `CN(C)C(=O)OCCc1n(C)cc[n+]1C`, the inhibition is inactive: -0.394%. Then `CC(C)=N/N=C(\N)N[N+](=O)[O-]`, with inactive: -1.76%; and `CC1CCN(C(=O)Oc2c(Cl)cc(Cl)c3cccnc23)CC1`, with inactive: -8.03%.

`Nc1ccc([As](=O)(O)c2ccc(N)cc2)cc1`: the inhibition is inactive: -1.34%. Consider `CCN(/C(=N/P(=O)(N1CCOCC1)N1CCOCC1)N1CCOCC1)c1ccc(OC)cc1`, for which the inhibition was inactive: -6.81%.

`O=C(Nc1cc([As](=O)(O)O)ccc1O)c1ccccc1`: the inhibition was inactive: -2.21%.

With `O=P1(N(CCCl)CCCl)OCCCS1` (stereo unspecified), the inhibition was inactive: -2.75%. As for `O=[N+]([O-])c1cccc(NC2=NCC(CBr)S2)c1` (stereo unspecified), the figure is inactive: -1.28%.

Turning to `COC(=O)C1(C)COP(=O)(Nc2ccccc2)OC1` (stereo unspecified), the inhibition was inactive: 14.8%.

Consider `O=C(O)CNc1ccc([As](=O)(O)O)cc1`, for which the inhibition is inactive: -3.56%. Then `CC(C)(C)C(=O)NC(Sc1ccncn1)C(Cl)(Cl)Cl` (stereo unspecified), with inactive: 6.83%; and `O=[N+]([O-])c1ncn(CCn2ncnc2[N+](=O)[O-])n1`, with inactive: -4.99%; and `C[C@H]1OP(=O)(Oc2ccccc2)[C@H](O)[C@H](O)[C@H]1N=[N+]=[N-]` (stereo partly specified), with inactive: -0.11%. Then `O=P(Nc1nc2ccccc2s1)(c1ccccc1)c1ccccc1`, with inactive: 0.344%; and `COc1ccc(N)c([N+](=O)[O-])c1[N+](=O)[O-]`, with inactive: -1.49%; and `CN(C)C1(CNC(=O)c2ccc(Cl)c(S(N)(=O)=O)c2)CCCCC1`, with inactive: -3.51%. As for `O=P(Nc1ccccn1)(c1ccc(Br)cc1)c1ccc(Br)cc1`, the figure is inactive: 1.46%; as for `Nc1ccc([As](=O)(O)c2ccc([N+](=O)[O-])cc2)cc1`, inactive: -0.562%.

On to `C(Cc1nn[nH]n1)Cc1nn[nH]n1`, for which the inhibition was inactive: 0.29%. As for `O=C(OC1CN2CCC1CC2)c1cccc(Cl)c1` (stereo unspecified), the inhibition is inactive: -5.2%. As for `CC(=O)NC(SC(=S)N(C)C)C(Cl)(Cl)Cl` (stereo unspecified), the figure is inactive: 3.58%; as for `O=[N+]([O-])c1ccc(O)c(/C=N/Nc2ccc([N+](=O)[O-])cc2[N+](=O)[O-])c1`, inactive: -4.44%; as for `O=[As](O)(c1ccccc1)c1ccc(O)cc1`, inactive: 5.12%. Then `c1nnnn1CCn1cnnn1`, with inactive: 3.17%; and `O=P(Nc1nccs1)(c1ccccc1)c1ccccc1`, with inactive: -1.1%. Then `CC(C)C(=O)NC(Sc1ccccc1)C(Cl)(Cl)Cl` (stereo unspecified), with inactive: -4.62%; and `CC(C)(C)C(=O)NC(Sc1ccccc1)C(Cl)(Cl)Cl` (stereo unspecified), with inactive: -7.33%. As for `CCOc1ccc(C2=NCC(CBr)S2)cc1` (stereo unspecified), the inhibition is inactive: -3.95%. With `O=P1(Nc2nc3ccc(Cl)cc3s2)COc2ccccc2O1` (stereo unspecified), the inhibition is inactive: -0.34%.

In the case of `CC(=O)Nc1ccc([As](=O)(O)O)c(O)c1`, the inhibition was inactive: -0.669%. Then `COC(=O)C1(C)COP(=O)(NCc2ccccc2)OC1` (stereo unspecified), with inactive: -3.9%; and `N#C/C(=C\c1ccc(N(CCBr)CCBr)cc1)C(N)=O`, with inactive: -0.619%; and `CC(=O)c1ccc(N2CC2c2ccncc2)cc1` (stereo unspecified), with inactive: -4.04%.

As for `C[C@@H]1C=CCP(=O)(Oc2ccccc2)O1` (stereo partly specified), the inhibition is inactive: 2.41%. `C[C@H]1OP(=O)(Oc2ccccc2)C[C@@H]2O[C@@H]21` (stereo partly specified): the inhibition was inactive: -3.76%.

`O=P1(N(CCCl)CCCl)OCCC2CCCCN21` (stereo unspecified): the inhibition is inactive: -0.865%. Then `O=C(NC1CCS(=O)(=O)C1)NP(=S)(Oc1ccccc1)Oc1ccccc1` (stereo unspecified), with inactive: -4.29%; and `c1ccc(-c2nn[nH]n2)c(-c2nn[nH]n2)c1`, with inactive: -4.86%. Turning to `CN(C)C(=O)Oc1noc2ccccc12`, the inhibition is inactive: -0.639%. Then `Cc1ccccc1OP(=O)(Nc1ccccn1)Oc1ccccc1C`, with inactive: -0.482%; and `CC(NC(=O)COC(=O)C(O)(c1ccccc1)c1ccccc1)c1ccccc1` (stereo unspecified), with inactive: -0.058%. Then `CC(=O)NC(SC(=S)N(CC(C)C)CC(C)C)C(Cl)(Cl)Cl` (stereo unspecified), with inactive: -5.67%.

For `Cc1ccc(OP(=O)(Nc2ccccn2)Oc2ccc(C)cc2)cc1`, the inhibition is inactive: -1.14%.

Take `COC(=O)c1cc2c(s1)N=C(c1ccccc1)N(C)P2(=O)N1CCOCC1` (stereo unspecified): the inhibition was inactive: -3.36%. Regarding `CCC(=O)N1C2C3N(C(=O)CC)C1C1N(C(=O)CC)C(C(N1C(=O)CC)N3C(=O)CC)N2C(=O)CC`, the inhibition was inactive: -5.59%. As for `O=C(OC1CN2CCC1CC2)c1ccccc1` (stereo unspecified), the figure is inactive: -5.57%.

A word on the inhibition: it is the drop in the measured response relative to a control, in per cent.
